B1: M6-H1L1: humanized antibody of M6: huM6VH1 + huM6VL1 (antibody)
heavy: EVQLVQSGAEVKKPGASVKVSCKASGYTFTPYWIEWVRQAPGQGLEWMGEILPGTGRTNYNEKFKGRVTFTADTSTNTVYMELSSLRSEDTAVYYCARYGDDTSGGYYAVDYWGQGTTVTVSSASTKGPSVFPLAPSSKSTSGGTAALGCLVKDYFPEPVTVSWNSGALTSGVHTFPAVLQSSGLYSLSSVVTVPSSSLGTQTYICNVNHKPSNTKVDKKV[human IgG1 Fc not spelt out]
light: DIVMTQSPDSLAVSLGERATINCRASESVNILGTNLIHWYQQKPGQPPKLLIYHASNLETGVPDRFSGSGSRTDFTLTISSLQAEDVAVYYCLQSRKIPWTFGGGTKVEIKRTVAAPSVFIFPPSDEQLKSGTASVVCLLNNFYPREAKVQWKVDNALQSGNSQESVTEQDSKDSTYSLSSTLTLSKADYEKHKVYACEVTHQGLSSPVTKSFNRGEC
B2: M6-H4L1: humanized antibody of M6: huM6VH4 + huM6VL1 (antibody)
heavy: B1 heavy with T28R, T30I, Q39E, A40R, Q43H, R87T
light: B1 light
B3: M6-H3L3: humanized antibody of M6: huM6VH3 + huM6VL3 (antibody)
heavy: B1 heavy with T28R, T30I, A40R
light: DIVMTQSPATLSLSPGERATLSCRASESVNILGTNLIHWYQQKPGQAPKLLIYHASNLETGIPARFSGSGSRTDFTLTISSLEPEDVAVYYCLQSRKIPWTFGGGTKVEIKRTVAAPSVFIFPPSDEQLKSGTASVVCLLNNFYPREAKVQWKVDNALQSGNSQESVTEQDSKDSTYSLSSTLTLSKADYEKHKVYACEVTHQGLSSPVTKSFNRGEC
B4: M6-H4L3: humanized antibody of M6: huM6VH4 + huM6VL3 (antibody)
heavy: B1 heavy with T28R, T30I, Q39E, A40R, Q43H, R87T
light: B3 light
B5: M6-H2L1: humanized antibody of M6: huM6VH2 + huM6VL1 (antibody)
heavy: B1 heavy with T28R, T30I
light: B1 light
B6: M6-H2L3: humanized antibody of M6: huM6VH2 + huM6VL3 (antibody)
heavy: B1 heavy with T28R, T30I
light: B3 light
B7: M6-H3L1: humanized antibody of M6: huM6VH3 + huM6VL1 (antibody)
heavy: B1 heavy with T28R, T30I, A40R
light: B1 light
B8: F4-1-H1L2: humanized antibody of F4-1: huF4-1VH1 + huF4-1VL2 (antibody)
heavy: EVQLVQSGAEVKKPGASVKVSCKASGYTFTDNYINWVRQAPGQRLEYMGWIYPGSGNNKFNEKFKGRVTITVDTSASTAYMELSSLRSEDTAVYYCARDYPFPSYHYGMDYWGQGTTVTVSSASTKGPSVFPLAPSSKSTSGGTAALGCLVKDYFPEPVTVSWNSGALTSGVHTFPAVLQSSGLYSLSSVVTVPSSSLGTQTYICNVNHKPSNTKVDKKV[human IgG1 Fc not spelt out]
light: DIQLTQSPSSLSASVGDRVTITCSASSSVSYIHWFQQKPGKAPKLWIYSTSNLASGVPSRFSGSGSGTDFTLTVSSLQPEDFATYYCQQRSSYPPTFGGGTKVEIKRTVAAPSVFIFPPSDEQLKSGTASVVCLLNNFYPREAKVQWKVDNALQSGNSQESVTEQDSKDSTYSLSSTLTLSKADYEKHKVYACEVTHQGLSSPVTKSFNRGEC
B9: F4-1-H2L2: humanized antibody of F4-1: huF4-1VH2 + huF4-1VL2 (antibody)
heavy: B8 heavy with M48I, I70L, S77R
light: B8 light
B10: F4-1-H1L4: humanized antibody of F4-1: huF4-1VH1 + huF4-1VL4 (antibody)
heavy: B8 heavy
light: B8 light with K41T, A42S, S59P, D69S
B11: F4-18-H1L1: humanized antibody of F4-18: huF4-18VH1 + huF4-18VL1 (antibody)
heavy: EVQLVQSGAEVKKPGASVKVSCKASGYTFTSYGINWVRQAPGQRLEWMGYIYLGSDYTEYNEKFKGRVTLTSDTSASTAYMELSSLRSEDTAVYYCARSAGSLFAYWGQGTLVTVSSASTKGPSVFPLAPSSKSTSGGTAALGCLVKDYFPEPVTVSWNSGALTSGVHTFPAVLQSSGLYSLSSVVTVPSSSLGTQTYICNVNHKPSNTKVDKKV[human IgG1 Fc not spelt out]
light: DIQMTQSPSSLSASVGDRVTITCRASQDIGITLNWYQQKPGKAPKRLIYATSSLDSGVPSRFSGSRSGTDYTLTISSLQPEDFATYYCLQYASSPYTFGGGTKVEIKRTVAAPSVFIFPPSDEQLKSGTASVVCLLNNFYPREAKVQWKVDNALQSGNSQESVTEQDSKDSTYSLSSTLTLSKADYEKHKVYACEVTHQGLSSPVTKSFNRGEC
B12: F4-18-H2L1: humanized antibody of F4-18: huF4-18VH2 + huF4-18VL1 (antibody)
heavy: B11 heavy with A40R, R44G, M48I
light: B11 light

The chains behind the UniProt entries cited, without tags or fusion partners. A line that says so, or that is headed by a name, gives the form on record, which may keep a tag or linker.
UniProt P15941, with tags, fused parts or gaps: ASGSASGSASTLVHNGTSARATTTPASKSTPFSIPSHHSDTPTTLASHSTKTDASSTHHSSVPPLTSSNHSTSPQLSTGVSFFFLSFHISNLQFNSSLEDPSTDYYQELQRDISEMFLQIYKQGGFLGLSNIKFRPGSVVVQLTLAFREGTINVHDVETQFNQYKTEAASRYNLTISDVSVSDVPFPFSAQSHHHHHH

Positions count from the first letter of the chain named.

For the first experiment, the target named is T1, human MUC1-C-L-his antigen (Homo sapiens, UniProt P15941).
T1 construct: made in house; host or cells: 293 cells (transient, pTT5 vector)
The experiment in a line: Determination of affinity of anti-MUC1-C antibodies using Biacore. Particulars: Biacore 8K, antibody captured on Protein A chip, 1:1 binding model. How it is done: • 1. Instrument: Biacore 8K, Cytiva • 2. Material: Protein A biosensor chip (Cat. #29127556, Cytiva) • 3.
The affinity of the antibodies of the present disclosure for the human MUC1-C-L-His antigen was determined using a Biacore 8K instrument.
Method: An antibody molecule was affinity-captured by a Protein A biosensor chip, and the antigen molecule, at a certain concentration, was then allowed to flow through the surface of the chip continuously for 180 s, followed by 600 s of natural dissociation. The reaction signals were detected in real time by the Biacore 8K instrument to obtain an association and dissociation curve. After the dissociation in each experimental cycle was complete, the biosensor chip was regenerated with 10 mM glycine-HCl (pH 1.5). Data fitting was performed using the Kinetics 1:1 binding model.
On the technique in general: In SPR one partner is held on a chip, and binding of the other changes the refractive index at the surface.
Turning to B1, the “ka” value turned out to be 309000 M⁻¹ s⁻¹ and the “kd” value was 0.00359 s⁻¹.
Regarding B2, the “ka” value was 260000 M⁻¹ s⁻¹ and the “kd” value amounted to 0.000784 s⁻¹.
The corresponding values for B3 are 177000 M⁻¹ s⁻¹ and 0.000951 s⁻¹.
Turning to B4, the “ka” value stood at 246000 M⁻¹ s⁻¹ and the “kd” value amounted to 0.000962 s⁻¹.
The corresponding values for B5 are 229000 M⁻¹ s⁻¹ and 0.000896 s⁻¹.
The like results for B6 were, in that order, 216000 M⁻¹ s⁻¹ and 0.000994 s⁻¹.
The like results for B7 were, in that order, 206000 M⁻¹ s⁻¹ and 0.000795 s⁻¹.
As to B8, the “ka” value came to 305000 M⁻¹ s⁻¹ and the “kd” value is 0.0014 s⁻¹.
The like results for B9 were, in that order, 288000 M⁻¹ s⁻¹ and 0.00176 s⁻¹.
On to B10, for which the “ka” value came to 302000 M⁻¹ s⁻¹ and the “kd” value was determined as 0.00175 s⁻¹.
The corresponding values for B11 are 133000 M⁻¹ s⁻¹ and 0.00268 s⁻¹.
Consider B12, for which the “ka” value was found to be 123000 M⁻¹ s⁻¹ and the “kd” value is 0.00224 s⁻¹.

In the next experiment the test system is CHOK1-cyno-MUC1-C cells. The experiment in a line: FACS-based determination of affinity of chimeric and humanized anti-MUC1-C antibodies. The experiment is classed as binding. Set-up: key: “+” means that there was binding; “−” means that there was no binding. Particulars: Table 19-2, Test 1. How it is done:
HCC827-human-MUC1-C cells (in-house constructed overexpression stably transfected cell strain), CHOK1-cyno-MUC1-C cells (in-house constructed overexpression stably transfected cell strain), and T47D cells (human ductal breast cancer cells) were separately digested and added to a 96-well plate at 1E5 cells/well. After the plate was centrifuged at 300 g for 5 min, the supernatant was discarded, and the cells were washed once with a PBS buffer containing 2% FBS. The antibodies were 5-fold diluted from a starting concentration of 20 μg/mL using a PBS buffer containing 2% FBS to obtain a total of 8 concentration gradients. The antibody samples were added at 100 μL/well, and the cells were resuspended and incubated at 4° C. for 1 h. After the plate was centrifuged at 300 g for 5 min, the supernatant was discarded, and the cells were washed twice with a PBS buffer containing 2% FBS. […] After the plate was centrifuged at 300 g for 5 min, the supernatant was discarded, and the cells were washed twice with a PBS buffer containing 2% FBS. The cells were resuspended in 100 μL of a PBS buffer containing 2% FBS and analyzed using an instrument. […] The experimental process was the same as that in Test Example 1 “FACS-Based Determination of Affinity of Chimeric Antibodies”. In addition, CHOK1-human-MUC1-C cells (in-house constructed overexpression stably transfected cell strain) were used for evaluation.
B1: the Qualitative determination entry was “+”.

The record behind these values is patent publication US20260232830A1, “ANTIGEN BINDING MOLECULE SPECIFICALLY BINDING TO EGFR AND MUC1, DRUG CONJUGATE THEREOF, AND MEDICAL USE THEREOF” (Jiangsu Hengrui Pharmaceuticals Co., Ltd., priority 2023, published 2026).
